From paper PMC3688836

The chains behind the UniProt entries cited, without tags or fusion partners. Where a name states a change or a piece, a line headed by the entry shows the natural chain unless it says otherwise.
UniProt P47197: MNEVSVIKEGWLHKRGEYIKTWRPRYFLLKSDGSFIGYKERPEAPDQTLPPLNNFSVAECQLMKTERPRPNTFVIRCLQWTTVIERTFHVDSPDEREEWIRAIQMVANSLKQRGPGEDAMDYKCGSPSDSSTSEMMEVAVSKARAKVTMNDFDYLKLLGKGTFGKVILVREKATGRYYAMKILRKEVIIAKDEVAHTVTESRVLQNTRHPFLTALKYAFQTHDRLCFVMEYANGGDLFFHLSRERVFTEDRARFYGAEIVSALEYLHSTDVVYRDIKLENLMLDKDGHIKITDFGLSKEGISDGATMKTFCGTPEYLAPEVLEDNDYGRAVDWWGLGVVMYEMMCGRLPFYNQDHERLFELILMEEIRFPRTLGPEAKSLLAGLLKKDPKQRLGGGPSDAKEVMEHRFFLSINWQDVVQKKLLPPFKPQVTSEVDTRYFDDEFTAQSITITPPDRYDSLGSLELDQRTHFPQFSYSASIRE

Target: AKT2 (embryonic rat cardiomyocytes) (rat (endogenous in embryonic E18 rat cardiac myocytes)) (UniProt P47197)
Assay: proximity ligation; Duolink in situ PLA on embryonic rat cardiac myocytes, serum deprived overnight, stimulated with angiotensin II (30 min, 100 nM), IGF-1 (10 min, 1 µg/ml) or insulin (10 min, 1,75 µg/ml); signals/nuclei relative to cells pretreated with LY294002 (1 h, 50 µM) before the stimulant (= 100%)

Substance “Elongation factor 2 (embryonic rat cardiomyocytes) (from UniProt P05197 1-858) (natural protein)” has a PLA signal after stimulation, percent of that in cells pretreated with LY294002 of 25 to 50%.
